Measurements as given in patent publication US20180148514A1, “MULTIVALENT MEDITOPES, MEDITOPE-BINDING ANTIBODIES AND USES THEREOF” (City of Hope, priority 2014, published 2018).

Columns and labels:
[1] = system: HER2-paGFP in MDA-MB-468 cells; assay: PC-PALM super-resolution imaging of HER2-paGFP distribution; type: cell-based; conditions: 10 nM trastuzumab, 10 minute incubation, Her2-paGFP transfected MDA-MB-468
Description: Cells were plated on clean and coated coverslips. Her2-paGFP was transiently transfected into MDA-MB-453 (3 ug of DNA, Fugine HD transfection reagent, 48 h) and MDA-MB-468 (2 ug DNA, JetPrime transfection reagent, 24 h or 48 h) cells. Cells were incubated with 10 nM trastuzumab for 10 min, washed, fixed as described hereinabove and imaged. PC-PALM was used to define the distribution of Her2.
Cells were assessed at the steady state (without addition of antibody) or following incubation for 10 minutes with trastuzumab which was not meditope-enabled).
In another study, the effects were compared to those observed following incubation with a multivalent meditope in combination with meditope-enabled antibody. The HER2-paGFP was expressed in MDA-468 cells as described above. Cells were incubated with 10 nM meditope-enabled Trastuzumab v2.0 with a heavy chain of SEQ ID NO: 9 and a light chain is the sequence of SEQ ID NO: 6 with 83E at 37° C. for 10 min. Cells were quickly washed once with pre-warmed (37° C.) media and then incubated with fresh 10 nM tetravalent meditope (M4Fc) at 37° C. for two different time points (3 min and 10 min).

MDA-MB-468 cells = assay: Confocal/fluorescent microscopy of cetuximab with MFC or M4FC; type: cell-based
Description: Effects on the endocytic process following incubation with meditope-enabled antibodies alone and with multivalent meditopes were assessed by confocal microscopy. Specifically, the effects a bivalent meditope Fc (MFC) and the tetravalent meditope-Fc described above (M4FC) were assessed by fluorescent microscopy. Alexa Fluor-labeled cetuximab without or in combination with each of these meditopes was co-incubated with MDA-MB-468 cells for 15 minutes, 1 hour and 40 minutes, 3 hours and 35 minutes, and 6 hours and 35 minutes. At the end of the incubation, the cells were fixed by formaldehyde, and where appropriate, Alexa Fluor-labeled antibodies were applied to stain for specific cellular markers before cover slips were mounted and the samples analyzed.

## trastuzumab: anti-HER2 antibody, not meditope-enabled [reference compound]
[1]
  average HER2 proteins per cluster: 6 proteins per cluster

## cetuximab: monoclonal anti-EGFR antibody with meditope-binding site; Alexa Fluor-labeled in microscopy [reference compound]
MDA-MB-468 cells
  brightness of dots: 100 lumin/pixel^2
  number of dots (punctates), ImagePro count: 37 dots
